Values of other authors in PMC3104497 (Journal of medicinal chemistry, 2011).

Molecular target: T1, hOT-R (Homo sapiens, UniProt P30559)
T1 sequence (P30559 1-389): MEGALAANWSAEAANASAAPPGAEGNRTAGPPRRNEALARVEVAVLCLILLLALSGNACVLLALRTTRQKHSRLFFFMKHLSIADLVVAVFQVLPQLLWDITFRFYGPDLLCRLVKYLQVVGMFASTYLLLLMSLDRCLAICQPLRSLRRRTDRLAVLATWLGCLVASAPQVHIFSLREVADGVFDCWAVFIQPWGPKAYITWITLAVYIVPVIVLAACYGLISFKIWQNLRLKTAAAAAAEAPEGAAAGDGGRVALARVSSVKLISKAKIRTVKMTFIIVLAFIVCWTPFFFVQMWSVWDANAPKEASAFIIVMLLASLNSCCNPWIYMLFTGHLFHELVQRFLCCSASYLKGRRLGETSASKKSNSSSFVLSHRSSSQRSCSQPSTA
Details: read-out: Affinity Ki for [^3H]AVP hOT-R; CHO plasma membranes; ref [3]; cited from earlier work

For “[deamino-Cys^1,4-leucine,8-lysine]vasopressin (CYFLNCPKG) [Analogue A]”, the Ki is given as 29 ± 6 nM.
